According to patent US10092537B2, “Use for PAI-1 inhibitor” (RENASCIENCE CO., LTD., priority 2013, dated 2018):

System: Her2-A20 cell
Test: Her2-A20 cell subcutaneous tumor, Herceptin and compound c (Experimental Example 19)
Type: in vivo, BALB/c-nude mice
Settings: Herceptin alone; results of Experimental Examples 18 to 20
Protocol: At first, A20 cell line (mouse B lymphoma) was transfected with human Her2 cDNA using MIGR1 vector to prepare transformed cells (hereinafter, “Her2-A20 cell”). The Her2-A20 cells (5×10^6) were subcutaneously inoculated into BALB/c-nude mice. When the tumor size became 30 mm^3 or more (day 0), Herceptin, a human anti-HER2 antibody, (20 mg/kg/day) was intraperitoneally administered once, and oral administration of compound c (10 mg/kg/day) or physiological saline was started at the same time. Compound c or physiological saline was administered once a day, 5 doses in total (day 0 to day 4). In the following week, Herceptin (20 mg/kg/day) was intraperitoneally administered once, and oral administration of compound c or physiological saline was started at the same time. Compound c or physiological saline was administered once a day, 7 doses in total (day 7 to day 13). The group to which Herceptin and compound c were administered in combination is referred to as “compound c-combined group,” and the group to which Herceptin and physiological saline were administered in combination is referred to as “compound c-non-combined group.” The group to which physiological saline alone was administered without Herceptin is referred to as “placebo group.” The number n is 3 for the compound c-combined group, 4 for the compound c-non-combined group, and 3 for the placebo group.

Question: Which “therapeutic effect on a tumor” value does the source give for “Herceptin: Herceptin, a human anti-HER2 antibody [reference compound]” here?
Answer: The value was “does not produce a therapeutic effect”.
